What was measured:
Assay in all cases: SPR; Biacore 3000; His-tagged eL42 species immobilised by amine coupling on a CM5 chip; eRF1 or EF-3 as analyte; 25°C, HBS-EP (10 mM HEPES pH 7.4, 150 mM NaCl, 3 mM EDTA, 0.005% P20), 5 µL/min; 1:1 Langmuir fit; mean of 3 experiments
[1] = biological target: recombinant human wild-type eL42 protein (large subunit ribosomal protein eL42, formerly RPL36A), His-tagged (human) (UniProt P83881)
[2] = biological target: human recombinant eL42-Q51E mutant (human) (UniProt P83881)
[3] = biological target: human recombinant eL42-K53Q mutant (human) (UniProt P83881)
[4] = biological target: human recombinant eL42-Q51A/K53A double mutant (human) (UniProt P83881)
[5] = biological target: human recombinant eL42-Δ(GGQTK) variant, His-tagged (human) (UniProt P83881)

“human translation termination factor eRF1 (from UniProt P62495 1-437) (natural protein)” showed a Kd [1] of 37.5 nM, a koff [1] of 0.000199 s⁻¹ and a kon [1] of 5300 M⁻¹ s⁻¹. The Kd [2] was 1920 nM, the koff [2] was 0.000251 s⁻¹ and the kon [2] was 131 M⁻¹ s⁻¹. The Kd [3] was 1280 nM, the koff [3] was 0.000188 s⁻¹ and the kon [3] was 147 M⁻¹ s⁻¹. It also gave a Kd [4] of 1620 nM, a koff [4] of 0.000379 s⁻¹ and a kon [4] of 234 M⁻¹ s⁻¹. For the same substance, the Kd [5] was 3.12 µM, the koff [5] was 0.000487 s⁻¹ and the kon [5] was 156 M⁻¹ s⁻¹.

— paper PMC5418926
